Laboratory results: US4371523A, “Reducing the aggregation of insulin in solution” (The Regents of the University of California, priority 1980, dated 1983)

Protein sequences, listed by entry. Tags and fused reporters are not part of them. Residues count along the entry.
UniProt P01315, 25-54 limits assumed: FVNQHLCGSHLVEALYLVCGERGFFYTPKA
UniProt P01315, 88-108 limits assumed: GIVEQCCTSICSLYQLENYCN

Assays:
[1] = target: T1, single component neutral pork zinc insulin (Sus scrofa, UniProt P01315); assay: Controlled shaking of zinc insulin solutions in test tubes, optical density at 600 nm; assay type: physicochemical; settings: zinc insulin 50 U/ml, pH 7.4, shaken 16 days at 37° C., OD at 600 nm; higher OD = greater aggregation
T1 construct: single component, neutral, pork, zinc-insulin (U.500 regular Iletin II., Eli Lilly & Company); purchased Eli Lilly & Company U.500 regular Iletin II

[2] = tested on: insulin; settings: supplemental material added to insulin solution; cited from earlier work

Row | Compound | Optical Density ± 1 × SE [1] | Effect in preventing the aggregation of insulin in solution over extended periods of time [2]
1 | Albumin: Albumin added at 5% to the zinc insulin solution | 0.49 ± 0.05 | 
2 | Cl [hydrochloric acid] |  | do not appear to have any appreciable effect
